From article PMC10046369, “Low-Affinity/High-Selectivity Dopamine Transport Inhibition Sufficient to Rescue Cognitive Functions in the Aging Rat” (Biomolecules, 2023)

Sequences of proteins named here, by UniProt entry; tags and fusion partners are left off. A change or cut given only in a name is not applied to a line headed by its entry.
UniProt P28335: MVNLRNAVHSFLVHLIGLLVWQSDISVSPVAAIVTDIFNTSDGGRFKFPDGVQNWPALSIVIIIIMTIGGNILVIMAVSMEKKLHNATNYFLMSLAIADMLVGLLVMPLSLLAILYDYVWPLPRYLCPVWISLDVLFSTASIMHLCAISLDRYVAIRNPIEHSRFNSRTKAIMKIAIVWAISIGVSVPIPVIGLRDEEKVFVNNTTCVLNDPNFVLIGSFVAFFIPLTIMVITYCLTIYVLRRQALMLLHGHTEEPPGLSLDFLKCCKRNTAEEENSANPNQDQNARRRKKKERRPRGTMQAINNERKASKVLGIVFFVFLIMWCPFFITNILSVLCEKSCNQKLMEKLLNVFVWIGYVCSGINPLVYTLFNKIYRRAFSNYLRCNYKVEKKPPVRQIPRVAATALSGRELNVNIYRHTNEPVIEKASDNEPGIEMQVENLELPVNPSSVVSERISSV

Target: T1, 5-HT2C (h) (Homo sapiens, UniProt P28335)
T1 construct: gene HTR2C
Assay: cell-based

Kb: 2.9 nM
Structure (SMILES): Cn1ccc2cc3c(cc21)CCN3C(=O)Nc1cccnc1 [SB 206553]
